Only some compounds are listed: those with a hit (about 1.5% of all), similar ones and a draw of the others.
HIV Env fusion = inhibitors of HIV Env-mediated cell fusion | AID 651610 | inhibition, % at 12.3 µM | actives 1.1% (n = 360,000) | HeLa-JRFL Env/CEM21 cell fusion, luciferase;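 active means mean replicate inhibition score of at least 50 and every replicate individually at or above 50; inconclusive means only one of the two criteria met; inactive means mean below 50 and not all replicates reaching 50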;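 further: 0% = plate neutral controls and 100% = maraviroc near 300 nM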
PGC1a acetyl inh = PGC1a acetylation modulation, inhibitor mode; U2OS PGC1a acetylation, AlphaScreen anti-acetyl-lysine; with virally co-expressed GCN5 acetyltransferase; inhibition, % at 15.6 µM; actives 0.17% (n = 350,000);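 active means every replicate shows inhibition of at least 40%; inconclusive means mean inhibition at least 40% but some replicate below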;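 further: 0% = neutral control wells and 100% = positive control wells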
miR-122 sensor = inhibitors of miR-122 in Huh7 cells. activation (reporter increase), % at 12.5 µM. actives 0.3% (n = 340,000). Huh7 miR-122 Renilla luciferase sensor, 48 h; neutral wells = 0, positive control = 100;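 active means mean replicate activation score at least 90 and every replicate individually at or above 90; inconclusive means only one of the two criteria met; inactive means neither criterion met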;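 further: higher luciferase means less miR-122 activity so hits act as miR-122 inhibitors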
Cneo AK release = causes C. neoformans cell lysis; adenylate kinase release luminescence, 4 h; normalised: neutral wells 0, clomiphene wells 100; lysis activity, % at 15 µM; actives 0.2% (n = 360,000); AID 651654;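 active means mean lysis activity across replicates of at least 80%, whatever share of replicates individually reach that level; inactive means mean lysis activity below 80%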
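Assay system: Cryptococcus neoformans yeast cells / Dosing: single-point compound dose / Timing: 4 h at 37 °C static, read 1 h later / Measured by: luminescence of released adenylate kinase using an AK detection reagent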
FN deposition inh = fibronectin deposition inhibition; AID 743247; AH1F fibroblasts, Alexa488-fibronectin deposition fluorescence, overnight; inhibition, % at 12.6 µM; actives 0.086% (n = 350,000);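 active means mean inhibition across replicates of 30% or more, regardless of how many single replicates reach that level; inconclusive means mean under 30% yet at least half of replicates reach 30%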;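 further: positive control wells lacked labelled fibronectin entirely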
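Assay system: AH1F fibroblasts assembling fluorescent fibronectin matrix; Amount: 10000 AH1F cells per well; Buffer or medium: DMEM, 2% serum; Probe or stimulus: Alexa488-fibronectin, 24 nM final in well; Doses: single compound dose, delivered by pin transfer; Incubation: 1 h adhesion, overnight exposure; Measured by: fluorescence 485/525 nm; Read-out: fibronectin deposition inhibition.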
UUG fidelity = alters start codon recognition fidelity in yeast. S. cerevisiae UUG-firefly luciferase reporter, luminescence/redox ratio. AID 602363. activity score, % at 18.7 µM. hit rate 0.13% among 350,000;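 active = replicate mean at a twofold rise or more, about +100% in these data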;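 note: firefly luciferase made from a UUG start codon reports start codon fidelity; reporter light over untreated wells divided by growth signal over untreated wells; some hits fall short of that in this replicate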
* hit, by the source's call; ? = inconclusive; nt = not tested or not shown.

SMILES | HIV Env fusion | PGC1a acetyl inh | miR-122 sensor | Cneo AK release | FN deposition inh | UUG fidelity
CCCC1(c2ccccc2)NC(=O)N(CC(=O)Nc2ccc(N3CCOCC3)cc2)C1=O (stereo not given) | -42.1 | 0.9 | -6.7 | 0.1 | 2.5 | -2.8
CC(C)(C)c1ccc(-c2noc(CCC(=O)NCC3CCCO3)n2)cc1 (stereo not given) | 75.0* | -14.9 | 3.2 | nt | -3.5 | nt
CC(C)(C)c1ccc(-c2noc(CCC(N)=O)n2)cc1 | 100.1* | -11.4 | -9.5 | nt | -1.7 | -27.5
CNC(=O)CCc1nc(-c2ccc(C(C)(C)C)cc2)no1 | nt | -5.6 | 3.6 | -3.1 | nt | -7.4
O=C(O)c1ccc(N=Nc2c(O)[nH]c3ccccc23)cc1 | -24.6 | 48.9* | 1.0 | -0.5 | -4.6 | -30.2
c1ccc(CSc2nnc([C@@H]3CCCN3)o2)cc1 | 93.7* | nt | -5.5 | 4.1 | 9.1 | -12.4
COc1ccccc1[C@@H]1C(c2ccc(F)cc2)=NN(c2ccccc2)[C@H]1C(=O)N1CCOC1=O | 82.1* | -10.8 | 2.9 | 1.5 | -11.5 | -18.3
COc1ccccc1[C@@H]1C(c2ccccc2)=NN(c2ccccc2)[C@H]1C(=O)N1CCOC1=O | 37.3 | -3.5 | 1.4 | -1.1 | nt | -2.5
CCNS(=O)(=O)c1ccc(NC(=O)Nc2ccc3c(c2)OCO3)cc1 | -20.6 | nt | nt | -18.5 | 0.7 | -3.7
O=C(CCc1ccc(S(=O)(=O)NCCc2ccccc2)cc1)N1CCN(Cc2ccc3c(c2)OCO3)CC1 | 76.9* | -6.3 | 58.6 | -2.9 | -5.5 | 16.8
CC(C)CNS(=O)(=O)c1ccc(CCC(=O)N2CCN(Cc3ccc4c(c3)OCO4)CC2)cc1 | 78.7* | 15.8 | 27.1 | -5.1 | 1.7 | -14.1
CCNS(=O)(=O)c1ccc(CCC(=O)N2CCN(Cc3ccccc3)CC2)cc1 | -4.5 | -18.5 | -5.1 | -0.5 | -1.7 | 0.7
Cc1ccc(S(=O)(=O)N(C)c2ccc(C(=O)N3CCN(Cc4ccc5c(c4)OCO5)CC3)cc2)cc1 | 82.6* | -28.4 | nt | 5.5 | nt | -4.4
O=C(Nc1ccc(S(=O)(=O)NCc2ccccc2)cc1)Nc1ccc2c(c1)OCO2 | nt | -38.3 | 242.6* | -5.2 | nt | -1.0
O=S(=O)(Nc1cccc(S(=O)(=O)N2CCCCC2)c1)c1ccc(Cl)s1 | nt | nt | 32.8 | -1.1 | nt | 10.5
CCOC(=O)C1=C(C)N=C2SC(C(=O)OC)=CC(=O)N2C1c1ccc(OC)cc1 (stereo not given) | 1.5 | 3.8 | -0.3 | -1.4 | nt | -2.9
CCC(Sc1nc(C)cc(C)n1)C(=O)O (stereo not given) | nt | 6.1 | -0.5 | 9.4 | nt | -14.2
CN(CC(=O)Nc1cccc(C#N)c1)Cc1ccc(Cl)cc1 | 12.0 | 3.5 | nt | nt | 5.0 | nt
CCNS(=O)(=O)c1ccc2c3c(cccc13)C(=O)N2 | -46.7 | 1.5 | 148.4* | 0.7 | -1.5 | -16.5
O=C1Nc2ccc(S(=O)(=O)NCCCO)c3cccc1c23 | 2.3 | nt | 82.3 | -1.5 | 6.6 | -15.5
O=S(=O)(NCCC1=CCCCC1)c1c(Cl)cccc1Cl | 10.5 | -30.7 | 111.2* | -3.4 | -8.6 | -6.2
O=C1Nc2ccc(S(=O)(=O)NCCC3=CCCCC3)c3cccc1c23 | nt | 6.1 | 116.7* | -12.4 | nt | 1.5
O=S(=O)(NCCC1=CCCCC1)c1cccc(Br)c1 | nt | nt | nt | nt | -5.7 | nt
CCOC(=O)C1=C(CC)Nc2ccccc2N=C1NC(=O)Nc1ccc(Cl)c(Cl)c1 | 113.5* | 14.1 | 36.0 | -5.7 | -6.5 | -6.5
COc1ccc(Cl)cc1NC(=S)Nc1ccc(Cl)cn1 | -17.1 | nt | nt | nt | 11.8 | nt

Single records, from the list above.
`CC(C)(C)c1ccc(-c2noc(CCC(N)=O)n2)cc1` is listed as HIV Env fusion = 100.1*; PGC1a acetyl inh = -11.4; miR-122 sensor = -9.5; Cneo AK release = nt; FN deposition inh = -1.7; UUG fidelity = -27.5
`c1ccc(CSc2nnc([C@@H]3CCCN3)o2)cc1` is listed as HIV Env fusion = 93.7*; PGC1a acetyl inh = nt; miR-122 sensor = -5.5; Cneo AK release = 4.1; FN deposition inh = 9.1; UUG fidelity = -12.4

New compounds follow
SMILES | HIV Env fusion | PGC1a acetyl inh | miR-122 sensor | Cneo AK release | FN deposition inh | UUG fidelity
CN(N=Nc1nc[nH]c1C(N)=O)C1CCCCC1 | 56.5* | -0.3 | 5.0 | 3.0 | -0.1 | -18.5
CN(C)N=Nc1nc[nH]c1C(N)=O | 38.3 | -3.9 | -1.8 | 3.9 | -4.0 | -1.7
COc1ccc(OC)c(NC(=O)c2cccc3c2C(=O)N(C2CCCCC2)C3)c1 | 6.5 | 5.8 | 1.7 | -6.0 | -3.2 | -2.2
CCOc1ccc(N2C(=O)Nc3ccccc3C2(O)C(=O)NCc2ccc3c(c2)OCO3)cc1 (stereo not given) | -42.6 | nt | 171.2* | -0.7 | 4.1 | -19.0
CCC(=O)Nc1cc(SCCO)cc([N+](=O)[O-])c1 | -13.2 | 0.2 | -1.2 | 3.1 | nt | -24.5
O=C(CCl)Nc1cc(SCC(O)CO)cc([N+](=O)[O-])c1 (stereo not given) | -63.9 | 52.5* | nt | nt | -12.3 | nt
N=C1/C(=C/c2ccco2)C(=O)N=C2SC(CC(=O)N3CCCC3)=NN12 | 1.8 | 3.7 | -1.6 | 0.1 | 1.0 | -12.8
COc1cc(/C=N/NS(=O)(=O)c2ccc(C)cc2)ccc1OCc1ccc(C(=O)O)cc1 | 72.4* | nt | nt | nt | 13.2 | nt
CCOc1ccc(/C=N/NS(=O)(=O)c2ccc(C)cc2)cc1OC | 4.6 | -24.2 | 8.8 | -2.1 | 1.4 | 0.9
COc1ccc(NS(=O)(=O)c2ccc(OC)c(OC)c2)cc1OC | 7.0 | -5.0 | ? | 2.8 | -7.5 | 4.2
COc1ccc(S(=O)(=O)Nc2ccc(C(F)(F)F)cc2)cc1OC | -17.1 | 0.7 | 127.9* | -0.1 | 4.2 | -3.5
O=S(=O)(NCC1CCCO1)c1ccc(S(=O)(=O)N(Cc2ccccn2)C2CC2)cc1 (stereo not given) | 3.5 | nt | nt | nt | -5.0 | nt
O=S(=O)(NCC1CCCO1)c1ccc(S(=O)(=O)N(Cc2ccccc2F)C2CCCCC2)cc1 (stereo not given) | 58.8* | -28.1 | 13.3 | -2.1 | 0.4 | -6.9
Cc1cccc(N=C2NN=C(c3ccc4c(c3)OCCO4)CS2)c1 | nt | -8.0 | -2.1 | -6.5 | nt | -26.0
CCc1ccc(C2=NNC(=Nc3cccc(S(=O)(=O)N(C)C)c3)SC2)cc1 | 80.0* | nt | nt | nt | -14.7 | nt
Cc1cc(NC(=O)CCC(=O)N(c2ccccc2)C(C(=O)NC2CCCC2)c2ccccc2)no1 (stereo not given) | nt | -11.1 | -3.7 | 0.3 | nt | -13.1
CC(=O)C1=C(C)N(Cc2ccc(Br)cc2)C(=S)NC1c1cccc(Cl)c1 (stereo not given) | 70.0* | nt | nt | nt | 6.3 | nt
COC(=O)C1=C(C)N(Cc2ccc(Cl)cc2)C(=S)NC1c1ccc(F)cc1 (stereo not given) | 24.3 | nt | nt | nt | -6.4 | nt
COC(=O)C1=C(C)N(Cc2ccc(Cl)cc2)C(=S)NC1c1ccc(Br)cc1 (stereo not given) | 55.7* | nt | nt | nt | 2.3 | nt
COC(=O)C1=C(C)N(Cc2ccccc2)C(=S)N[C@H]1c1cccc(F)c1 | 9.6 | nt | nt | 180.1* | -2.7 | -34.2
CC(=O)C1=C(C)N(Cc2ccc(Cl)cc2)C(=S)NC1c1cccc(Br)c1 (stereo not given) | 70.4* | nt | nt | nt | -12.7 | nt
CC(=O)C1=C(C)N(Cc2ccc(Br)cc2)C(=S)NC1c1cccc(Br)c1 (stereo not given) | ? | nt | nt | nt | 10.2 | nt
CC1=C([N+](=O)[O-])C(c2ccccc2)C2=C(N1)c1ccccc1C2=O (stereo not given) | 119.9* | 2.5 | 26.6 | -1.4 | -4.8 | -16.8

3 compounds already listed, ordered by heavy-atom count, largest number first.
SMILES | HIV Env fusion | PGC1a acetyl inh | miR-122 sensor | Cneo AK release | FN deposition inh | UUG fidelity
CC(=O)C1=C(C)N(Cc2ccc(Cl)cc2)C(=S)NC1c1cccc(Br)c1 (stereo not given) | 70.4* | nt | nt | nt | -12.7 | nt
N=C1/C(=C/c2ccco2)C(=O)N=C2SC(CC(=O)N3CCCC3)=NN12 | 1.8 | 3.7 | -1.6 | 0.1 | 1.0 | -12.8
CN(C)N=Nc1nc[nH]c1C(N)=O | 38.3 | -3.9 | -1.8 | 3.9 | -4.0 | -1.7
